Earlier results in patent US20190282692A1, “SELECTIVE LOCAL INHIBITION OF TNFR1-MEDIATED FUNCTIONS AT THE SITE OF ANTIGEN/ALLERGEN PRESENTATION” (priority 2012, published 2019).

Conditions: 600 mg to 1000 mg NAC three times daily orally, 4 weeks; cited from earlier work

CC(=O)N[C@@H](CS)C(=O)O [NAC, N-acetyl-L-cysteine]
safety of high doses: safe
